Consider 13 molecules from PubChem BioAssay AID1224817 (Yan Lab, Georgia Cancer Center, Augusta University, 2016).

The list shows a part of the results, in another mix than the full data. Calls of active or inactive are those of the source.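 The calls were made as follows: active = log2 luciferase ratio at or below -0.5849, meaning signal at two thirds of solvent-only control or lower; inactive = the rest.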

The nature of the test: eIF4E expression suppression, luciferase knock-in reporter – cell-based, HT1080, primary screen (AID 1224817).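 Also: luciferase reports endogenous eIF4E expression since it is co-expressed from the native EIF4E locus.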 Conditions: HT1080 EIF4E-luc2 knock-in reporter, 16 h, at 2.5 µM, hits give low values.
As for `NCCC(N)CSP(=O)(O)O` (stereo not drawn), the log2 luciferase activity ratio was inactive: -0.0637.

`O=[As]c1ccc(S(=O)(=O)NCCO)cc1` (stereo not drawn): the log2 luciferase activity ratio was inactive: -0.225.

As to `[N-]=[N+]=NCC(N)=O`, the log2 luciferase activity ratio was inactive: -0.257.

As to `NC(=O)Nc1cc([As](=O)(O)O)cc(I)c1O`, the log2 luciferase activity ratio was inactive: 0.28.

As for `NS(=O)(=O)Cc1ccc([As](=O)(O)O)cc1`, the log2 luciferase activity ratio is inactive: 0.0654.

`O=[As](O)(O)c1ccc([As](=O)(O)O)cc1`: the log2 luciferase activity ratio was inactive: -0.112.

With `CC(O)COc1ccc([As](=O)(O)O)cc1N` (stereo not drawn), the log2 luciferase activity ratio was inactive: -0.0639.

`[N-]=[N+]=Nc1ccc([As](=O)(O)O)cc1`: the log2 luciferase activity ratio is inactive: -0.338.

As to `CN1CCCC(OC(=O)C(c2ccccc2)c2ccccc2)C1` (stereo not drawn), the log2 luciferase activity ratio is inactive: -0.0697.

For the molecule `O=[N+]([O-])c1ccc(C[As](=O)(O)O)cc1`, the log2 luciferase activity ratio was inactive: -0.158.

Regarding `C(Cc1nn[nH]n1)c1nn[nH]n1`, the log2 luciferase activity ratio was inactive: 0.115.

As for `O=C(CO)Nc1ccc([As](=O)(O)O)cc1`, the log2 luciferase activity ratio was inactive: -0.261.

On to `O=C(O)C(O)c1ccc([As](=O)(O)O)cc1` (stereo not drawn), for which the log2 luciferase activity ratio is inactive: -0.0935.
